In PubChem BioAssay AID2718 (Broad Institute, 2010):
The list shows a part of the results, in another mix than the full data. Some tests of the compounds listed are not included; inactive here does not mean inactive elsewhere. Calls of active or inactive are those of the source. Cut-off read from the data, not from the text of the source: active = inhibition above about 26% (passing the limit was not always enough); inconclusive = no clear call, values can overlap the other calls.

By UniProt entry, the sequences of proteins in these tests, tags left out.
UniProt O15379, whole entry: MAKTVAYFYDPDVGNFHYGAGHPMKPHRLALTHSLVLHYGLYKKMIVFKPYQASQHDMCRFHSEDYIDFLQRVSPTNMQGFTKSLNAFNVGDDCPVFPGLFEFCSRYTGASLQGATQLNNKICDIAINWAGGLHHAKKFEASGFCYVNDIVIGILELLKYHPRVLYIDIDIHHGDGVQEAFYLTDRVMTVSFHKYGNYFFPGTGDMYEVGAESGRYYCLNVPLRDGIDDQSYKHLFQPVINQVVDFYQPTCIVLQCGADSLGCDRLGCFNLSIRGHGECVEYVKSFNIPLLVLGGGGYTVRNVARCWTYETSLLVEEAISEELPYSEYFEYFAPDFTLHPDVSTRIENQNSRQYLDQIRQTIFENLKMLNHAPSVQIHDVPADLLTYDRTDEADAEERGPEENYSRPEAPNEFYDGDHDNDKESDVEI

What follows are compounds tested against Histone deacetylase 3 (Homo sapiens) (UniProt O15379) (assay: inhibition of human HDAC3 enzyme activity – biochemical, fluorescence, cell-free homogeneous, primary screen (AID 2718)). Conditions: recombinant HDAC3, fluorogenic peptide/trypsin coupled, at 8.3 µM, hits give high values.

Compound | inhibition
Cc1ccccc1C(=O)NCC1(N2CCCCC2)CCCCC1 | inactive: 1.3%
CN(C)C1CCCC1OC(=O)C(O)(c1ccccc1)c1ccccc1 (centres undefined) | inactive: 5.08%
CN(C)c1ccc(C(=O)NCC2(N(C)C)CCCCC2)cc1 | inactive: 6.28%
COc1ccc(C(=O)NCC2(N(C)C)CCCCC2)cc1 | inactive: 1.39%
Cc1cc(C(=O)NCC2(N3CCCCC3)CCCCC2)ccc1[N+](=O)[O-] | inactive: 2.31%
CCN1CCCC(OC(=O)C2(O)c3ccccc3C=Cc3ccccc32)C1 (centres undefined) | inactive: -12.8%
O=C(NCC1(N2CCCCC2)CCCCC1)c1cccc(Br)c1 | inactive: -3.78%
C=CCN1CCN(CCOC(=O)C(O)(c2ccccc2)c2ccccc2)CC1 | inactive: 1.43%
O=C(NCC1(N2CCCCC2)CCCCC1)c1cc(F)c(F)cc1Cl | inactive: 0.922%
CN1[C@@H]2CC[C@H]1CC(OC(=O)C(O)(c1ccccc1)c1ccccc1)C2 (some centres undefined) | inactive: 1.62%
O=C(NCC1(N2CCCCC2)CCCCC1)c1cc([N+](=O)[O-])ccc1Cl | inactive: -0.798%
Cc1ccc(C(=O)NCC2(N3CCCCC3)CCCCC2)cc1 | inactive: 3.52%
CCN(CC)CC(C)C(C)OC(=O)C(O)(c1ccccc1)c1ccccc1 (centres undefined) | inactive: -4.55%
COc1cc(SC)ccc1C(=O)NCC1(N(C)C)CCCCC1 | inactive: 2.85%
CC(C)N1C(=O)CC2(CCN(CCOC(=O)C(O)(c3ccccc3)c3ccccc3)CC2)C1=O | inactive: -1.45%
O=C(OC1CN2CCC1CC2)C(CO)(c1ccccc1)c1ccccc1 (centres undefined) | inactive: -15.3%
CC(C)Oc1ccc(C(=O)NCC2(N(C)C)CCCCC2)cc1 | inactive: 0.197%
CN(C)c1cccc(C(=O)NCC2(N(C)C)CCCCC2)c1 | inactive: 6.6%
COc1ccc(Br)c(C(=O)NCC2(N3CCCCC3)CCCCC2)c1 | inactive: 0.726%
COc1cc(C(=O)NCC2(N(C)C)CCCCC2)c([N+](=O)[O-])cc1OC | inactive: 0.438%
CN(C)C1(CNC(=O)c2ccc(Br)cc2)CCCCC1 | inactive: 3.01%
O=C(NCC1(N2CCCCC2)CCCCC1)c1cccc(Cl)c1 | inactive: 3.3%
COc1cccc(C(=O)NCC2(N3CCCCC3)CCCCC2)c1 | inactive: 2.06%
COc1ccc(Cl)cc1C(=O)NCC1(N(C)C)CCCCC1 | inactive: 6.09%
